# Screening data from PubChem BioAssay.
# TDP1 block: blocks human tyrosyl-DNA phosphodiesterase 1 | Potency, µM (titrated, usually from 130 µM), actives largely listed as inhibitors | hit rate 0.28% among 350,000 | Q9NUW8 | AID 485290 | recombinant TDP1, AlphaScreen DNA substrate cleavage; also: nearly all actives have a fitted effect of over 40% in size
#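 AlphaScreen read-out: signal falls as enzyme removes the 3' tyrosine-FITC from a 5'-biotinylated DNA oligo (15 nM, 5 min, RT). Enzyme was E. coli-made recombinant Tdp1 at 1 nM, exposed to compound for 15 min beforehand; beads 10 ug/ml, 10 min.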
# DT40 TDP1 CPT: growth inhibition of DT40 Tdp1-/-;hTDP1 cells with camptothecin (screen for TDP1 inhibitors) | hit rate 12% among 420,000 | Potency, µM (titrated, usually from 46.2 µM), actives largely listed as inhibitors | chicken DT40 Tdp1-/-;hTDP1 cells + 20 nM CPT, ATP luminescence, 48 h; also: nearly all actives have a fitted effect of over 55% in size
#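 Chicken DT40 Tdp1-/- cells stably complemented with human TDP1 were seeded at 400 cells/well in medium containing 20 nM camptothecin, exposed to pin-transferred compounds, and grown at 37 °C for at least 48 hr. Viability was read as ATP luminescence.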
# DT40 TDP1 no CPT: qHTS for Inhibitors of human tyrosyl-DNA phosphodiesterase 1 (TDP1): qHTS in cells in absence of CPT; DT40 Tdp1-/- hTDP1 cells, no CPT, ATP luminescence, 48 h; hit rate 15% among 420,000; AID 686978, 2013; Potency, µM (doses to about 46.2 µM), actives largely listed as inhibitors; also: nearly all actives have a fitted effect of over 55% in size
#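 No-CPT arm: Tdp1-/-;hTDP1 DT40 cells (400/well) plus compounds, incubated ≥48 hr at 37 °C. Readout CellTiter-Glo luminescence.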
# miR-21 reporter: miR-21 reporter, rising signal; HeLa miR-21 FLuc reporter, luciferase, 48 h; Potency, µM (doses to about 38.3 µM); 340,000 tested, under 10 active; AID 2288; active = well fitted rising curve with a large enough effect; inconclusive = small, poorly fitted or top-dose-only effect; inactive = no such curve, though single readings can be large or run the other way;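 further: miR-21 action dims this reporter so a rising signal means less miR-21 action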
#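 HeLa cells stably expressing CMV-driven firefly luciferase with a downstream miR-21 binding sequence, endogenously expressing miR-21, were treated with titrations (up to about 40uM final) for 48 hours at 37 degree Celsius. Luciferase luminescence was read after lysis.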
# uPA generation: blocks generation of uPA at the cell surface | cell surface uPA generation assay, qHTS | Potency, µM (highest dose often 38.3 µM), usual class: inhibitors | hit rate 0.31% among 330,000 | AID 540303; active = well fitted inhibition curve with a large enough effect; inconclusive = small, poorly fitted or top-dose-only effect; inactive = no such curve, though single readings can be large or run the other way; tested in mouse RAW 264.7 cells; also: nearly all actives have a fitted effect of over 55% in size
# Numbers stand for hits; n = inactive; u = inconclusive; x = not tested or not shown; [ ] = remark or other dose. Only some compounds are listed: those with a hit (about 16% of all), similar ones and a draw of the others. Unless noted, calls follow the shape of the dose curve; as a rule, active = well fitted curve in the direction sought with a large enough effect; inconclusive = small, poorly fitted or top-dose-only effect, or another doubt; inactive = no such curve, though single readings can be large; an effect the other way counts as inactive or inconclusive.
SMILES,TDP1 block,DT40 TDP1 CPT,DT40 TDP1 no CPT,miR-21 reporter,uPA generation
CC(=O)Nc1sc(C)c(C)c1C(=O)OCC(=O)N(C)c1c(N)n(Cc2ccccc2)c(=O)[nH]c1=O,x,n,n,x,n
Cc1oc(-c2cc(F)ccc2F)nc1CN(C)Cc1ccc2nccnc2c1,n,u,16µM,n,x
CN(C)S(=O)(=O)c1cccc(NC(=O)c2cccc(NS(=O)(=O)c3ccccc3)c2)c1,n,21µM,u,n,n
COc1ccc(NC(=O)c2cccc(S(=O)(=O)N(C)c3ccccc3)c2)cn1,n,16µM,16µM,n,n
O=C(Nc1ccc2c(c1)CCC2)c1cccc(S(=O)(=O)N2CCN(c3ccccc3)CC2)c1,n,n,n,n,n
CN(c1ccccc1)S(=O)(=O)c1cccc(NC(=O)c2ccncc2)c1,n,6.5µM,8.2µM,n,n
CN(C)S(=O)(=O)c1cccc(C(=O)Nc2ccc(C(=O)Nc3cccc(S(N)(=O)=O)c3)cc2)c1,n,n,u,x,n
CN(c1ccccc1)S(=O)(=O)c1cccc(NC(=O)c2cncc(Br)c2)c1,n,u,u,u,n
Cc1ccc(N(C)S(=O)(=O)c2cccc(C(=O)Nc3ccc(C)cn3)c2)cc1,n,u,u,x,n
CN(c1ccccc1)S(=O)(=O)c1cccc(C(=O)Nc2ccc3c(c2)CCC3)c1,n,5.2µM,2.6µM,n,n
O=S(=O)(c1ccccc1)C(/C=N\O)/C=C/c1ccccc1 (stereo not given),n,u,u,n,n
Cc1ccc(CNS(=O)(=O)c2c(C)nc3scc(C)n3c2=O)cc1,n,n,n,n,n
CN(c1cccc(NC(=O)c2ccc(N(C)S(=O)(=O)c3ccccc3)cc2)c1)S(C)(=O)=O,n,21µM,u,u,u
CN(c1cccc(NC(=O)c2ccc(C(C)(C)C)cc2)c1)S(C)(=O)=O,n,23µM,21µM,n,n
CC(=O)Nc1ccc(C(=O)Nc2cccc(S(=O)(=O)N(C)c3ccccc3)c2)cc1,n,18µM,u,x,n
CC(=O)Nc1ccc(S(=O)(=O)Nc2cccc(S(=O)(=O)N(C)c3ccccc3)c2)cc1,n[0.505 µM],u,u,x,n
CC(=O)c1cccc(NC(=O)c2ccc(N(C)S(C)(=O)=O)cc2)c1,n,n,n,n,n
Cc1ccc(NS(=O)(=O)c2cc(C(=O)Nc3cccc(N(C)S(C)(=O)=O)c3)ccc2C)c(C)c1,n,16µM,18µM,n,n
Cc1ccc(C)c(NS(=O)(=O)c2cc(C(=O)Nc3cccc(N(C)S(C)(=O)=O)c3)ccc2C)c1,n,u,u,n,x
COCC(=O)N(Cc1cc2cccc(C)c2[nH]c1=O)c1ccccc1,n,n,n,n,n
O=C(Nc1nccs1)c1ccc(N2C(=O)[C@@H]3[C@H](C2=O)[C@H]2C=C[C@@H]3C2)cc1,n,n,n,n,n
COC(=O)c1c(NC(=O)C(C)C)sc2c1CCN(Cc1ccccc1)C2,x,n,u,n,n
CCOc1ccccc1NC(=O)N1CCC(N2CCN(Cc3ccccc3)C(=O)C2=O)CC1,n,n,n,n,x
O=C(Nc1ccc2c(c1)CCC2)c1ccccc1,n,u,16µM,n,u
Cc1ccc(C(=O)Nc2nc(C)c(C(=O)Nc3ccc4c(c3)CCC4)s2)cc1,n,1.3µM,1.3µM,n,n
SMILES,TDP1 block,DT40 TDP1 CPT,DT40 TDP1 no CPT,miR-21 reporter,uPA generation
O=C(Nc1cccc(S(=O)(=O)N2CCCC2)c1)c1cc(-c2ccccn2)nc2ccccc12,n,23µM,21µM,n,n
CSc1ncccc1C(=O)Nc1cccc(S(=O)(=O)N(C)c2ccccc2)c1,n,18µM,u,x,n
Cc1cc(C(=O)Nc2cccc(S(=O)(=O)N3CCCCC3)c2)c2ccccc2n1,n,u,u,n,n
Cc1nc(NC(=O)c2ccc(F)cc2)sc1C(=O)Nc1ccc2c(c1)CCC2,n,u,u,n,n
CC1(C)O[C@@H]2[C@H](O1)[C@@H](CO)O[C@H]2n1cc(Br)c(=O)[nH]c1=O,n,n,n,x,n
O=C(CC(NS(=O)(=O)c1ccc(Cl)cc1)c1ccco1)NCc1cccnc1 (stereo not given),n,n,u,n,n
CCCC(=O)Nc1nnc(SCC(=O)Nc2ccc(OCC)cc2)s1,x,n,n,x,x
